Chains of the proteins cited; added tags and fusions are not shown. Residues count along the entry.
UniProt P25774, 115-331: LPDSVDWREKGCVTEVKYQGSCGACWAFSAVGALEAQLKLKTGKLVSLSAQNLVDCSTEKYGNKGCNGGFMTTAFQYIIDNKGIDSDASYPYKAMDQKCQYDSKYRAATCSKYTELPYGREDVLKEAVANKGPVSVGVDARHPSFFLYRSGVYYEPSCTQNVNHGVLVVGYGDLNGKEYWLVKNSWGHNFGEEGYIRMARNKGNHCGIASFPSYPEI

According to US20090099157A1, “TETRAHYDRO-PYRAZOLO-PYRIDINE THIOETHER MODULATORS OF CATHEPSIN S” (priority 2007, published 2009):

Each compound was assayed against T1, Recombinant human cathepsin S (CatS) (Homo sapiens, UniProt P25774) (assay: biochemical). Details: not given.

First: CS(=O)(=O)N1CCc2c(c(-c3ccc(C(F)(F)F)c(SCCN4CCC(C(F)(F)F)CC4)c3)nn2CCCN2CCC(N3CCCC3=O)CC2)C1 [Example 40, 1-{1-[3-(5-Methanesulfonyl-3-{4-trifluoromethyl-3-[2-(4-trifluoromethyl-piperidin-1-yl)-ethylsulfanyl]-phenyl}-4,5,6,7-tetrahydro-pyrazolo[4,3-c]pyridin-1-yl)-propyl]-piperidin-4-yl}-pyrrolidin-2-one]
Second: CC1CCCN(CCSc2cc(-c3nn(CCCN4CCC(N5CCCC5=O)CC4)c4c3CN(S(C)(=O)=O)CC4)ccc2C(F)(F)F)C1 (stereo not shown) [Example 8, 1-{1-[3-(5-Methanesulfonyl-3-{3-[2-(3-methyl-piperidin-1-yl)-ethylsulfanyl]-4-trifluoromethyl-phenyl}-4,5,6,7-tetrahydro-pyrazolo[4,3-c]pyridin-1-yl)-propyl]-piperidin-4-yl}-pyrrolidin-2-one]
The IC50 of the first is 4.6-fold higher: 320 nM for the first, 70 nM for the second. The second is the more potent here.

Compared with `CS(=O)(=O)N1CCc2c(c(-c3ccc(C(F)(F)F)c(SCCN4CCOCC4)c3)nn2CC(O)CN2CCC[C@@H](O)C2)C1` (stereo partly drawn) [Example 405, (3R)-1-{2-Hydroxy-3-[5-(methylsulfonyl)-3-{3-[(2-morpholin-4-ylethyl)sulfanyl]-4-(trifluoromethyl)phenyl}-4,5,6,7-tetrahydro-1H-pyrazolo[4,3-c]pyridin-1-yl]propyl}piperidin-3-ol], `CC(C)(O)C1CCN(C[C@H](O)Cn2nc(-c3ccc(C(F)(F)F)c(SCCN4CCCC(F)(F)C4)c3)c3c2CCN(S(C)(=O)=O)C3)CC1` [Example 724, (2S)-1-{3-[3-{[2-(3,3-Difluoropiperidin-1-yl)ethyl]sulfanyl}-4-(trifluoromethyl)phenyl]-5-(methylsulfonyl)-4,5,6,7-tetrahydro-1H-pyrazolo[4,3-c]pyridin-1-yl}-3-[4-(1-hydroxy-1-methylethyl)piperidin-1-yl]propan-2-ol] is 10-fold lower in IC50: 770 nM for the first, 75 nM for the second. The second is the more potent here.

Compared with `CS(=O)(=O)N1CCc2c(c(-c3ccc(C(F)(F)F)c(SCC(=O)N4CCOCC4)c3)nn2CC(O)CN2CCC(NC(=O)CO)CC2)C1` (stereo not shown) [Example 696, 2-Hydroxy-N-(1-{2-hydroxy-3-[5-(methylsulfonyl)-3-{3-[(2-morpholin-4-yl-2-oxoethyl)sulfanyl]-4-(trifluoromethyl)phenyl}-4,5,6,7-tetrahydro-1H-pyrazolo[4,3-c]pyridin-1-yl]propyl}piperidin-4-yl)acetamide], `CS(=O)(=O)N1CCc2c(c(-c3ccc(C(F)(F)F)c(SCCN4CCC(F)CC4)c3)nn2CC(O)CN2CCC(C(=O)N3CCCC3)CC2)C1` (stereo not shown) [Example 816, 1-{3-[3-{[2-(4-Fluoropiperidin-1-yl)ethyl]sulfanyl}-4-(trifluoromethyl)phenyl]-5-(methylsulfonyl)-4,5,6,7-tetrahydro-1H-pyrazolo[4,3-c]pyridin-1-yl}-3-[4-(pyrrolidin-1-ylcarbonyl)piperidin-1-yl]propan-2-ol] is 2-fold higher in IC50: 35 nM for the first, 70 nM for the second.

In the case of `CS(=O)(=O)N1CCc2c(c(-c3ccc(C(F)(F)F)c(SCCN4CC=CCC4)c3)nn2CCCN2CCC(N3CCCC3=O)CC2)C1` [Example 14, 1-{1-[3-(3-{3-[2-(3,6-Dihydro-2H-pyridin-1-yl)-ethylsulfanyl]-4-trifluoromethyl-phenyl}-5-methanesulfonyl-4,5,6,7-tetrahydro-pyrazolo[4,3-c]pyridin-1-yl)-propyl]-piperidin-4-yl}-pyrrolidin-2-one], the IC50 is reported as 150 nM.

The compounds below were run against T1, Recombinant human cathepsin S (CatS) (assay: not given). Details: read-out: CatS IC50; Table 4; average of results obtained; 10 μM substrate, pH 5.0.

“2-[4-(3-{3-[3-{[2-(3,3-Difluoropyrrolidin-1-yl)ethyl]sulfanyl}-4-(trifluoromethyl)phenyl]-4,5,6,7-tetrahydro-1H-pyrazolo[4,3-c]pyridin-1-yl}-2-hydroxypropyl)piperazin-1-yl]pyridine-3-carbonitrile [Example 510]” and “(4R)-1-{1-[(2S)-3-(5-Acetyl-3-{3-[(2-pyrrolidin-1-ylethyl)sulfanyl]-4-(trifluoromethyl)phenyl}-4,5,6,7-tetrahydro-1H-pyrazolo[4,3-c]pyridin-1-yl)-2-hydroxypropyl]piperidin-4-yl}-4-hydroxypyrrolidin-2-one [Example 364]” are within 1.5-fold of each other in IC50: 320 nM for the first, 260 nM for the second.

Compound “1-[5-(Methylsulfonyl)-3-{3-[(2-morpholin-4-ylethyl)sulfanyl]-4-(trifluoromethyl)phenyl}-4,5,6,7-tetrahydro-1H-pyrazolo[4,3-c]pyridin-1-yl]-3-[4-(1H-pyrrolo[2,3-b]pyridin-3-yl)piperidin-1-yl]propan-2-ol [Example 801]” has an IC50 of 70 nM.
